Measurements published in US9676793B2, “Co-crystals of 5-amino-2-oxothiazolo[4,5-d]pyrimidin-3(2H)-yl-5-hydroxymethyl tetrahydrofuran-3-yl acetate and methods for preparing and using the same” (Hoffmann-La Roche Inc., priority 2014, dated 2017).

Assay: BCS classification of co-crystals (aqueous solubility)

Fumaric acid
BCS Class (Table 1): 1
BCS Class (Stahl et al) (Table 10): 1
